Reference: PMC7901023

By UniProt entry, the sequences of proteins in these tests, tags left out. Where a name states a change or a piece, a line headed by the entry shows the natural chain unless it says otherwise.
UniProt P35583: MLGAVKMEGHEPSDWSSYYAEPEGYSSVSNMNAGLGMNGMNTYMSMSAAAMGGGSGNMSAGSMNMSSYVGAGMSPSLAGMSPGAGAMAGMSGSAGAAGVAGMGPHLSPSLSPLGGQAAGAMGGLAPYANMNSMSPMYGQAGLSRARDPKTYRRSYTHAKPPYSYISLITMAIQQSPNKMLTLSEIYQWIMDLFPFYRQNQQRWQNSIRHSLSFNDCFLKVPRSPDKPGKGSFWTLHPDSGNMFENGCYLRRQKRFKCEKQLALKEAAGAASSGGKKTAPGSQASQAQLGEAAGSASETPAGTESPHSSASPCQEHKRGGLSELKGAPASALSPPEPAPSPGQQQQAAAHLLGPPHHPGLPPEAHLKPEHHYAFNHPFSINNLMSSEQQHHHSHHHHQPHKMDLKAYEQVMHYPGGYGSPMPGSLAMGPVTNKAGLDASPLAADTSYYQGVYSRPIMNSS

Target: FOXA2-ΔHx (UniProt P35583)
Experiment: pull-down

pull-down relative to wild-type FOXA2 (fraction of wild type): 0.5
Substance: recombinant histone octamers (complex)
